Target: cyclophilin A (Homo sapiens, UniProt P62937)

By UniProt entry, the sequences of proteins in these tests, tags left out.
UniProt P62937, whole entry: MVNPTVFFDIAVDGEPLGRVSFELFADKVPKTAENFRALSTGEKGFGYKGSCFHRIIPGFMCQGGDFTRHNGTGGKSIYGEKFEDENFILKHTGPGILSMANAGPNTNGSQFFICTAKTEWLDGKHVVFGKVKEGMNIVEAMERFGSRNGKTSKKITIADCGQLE

SMILES: CC(C)[C@@H]1NC(=O)[C@@H](C)/C=C/c2ccc3ccc(nc3c2)[C@@H](C)OC(=O)[C@@H]2CCCN(N2)C(=O)[C@H](C)NC1=O
- IC50: < 100 nM

Reference: US10246486B2, “Macrocyclic inhibitors of flaviviridae viruses” (Gilead Sciences, Inc., priority 2012, dated 2019)
